Measurements reported in patent US12171806B2, “Therapeutic regimens and methods for lowering blood glucose and/or body weight using GLP-1R and GCGR balanced agonists” (priority 2021, dated 2024).
Entries after “also recorded” stand apart in the source; their conditions may differ.

The chains behind the UniProt entries cited, without tags or fusion partners. Residues count along the entry.
UniProt P47871, 26-477: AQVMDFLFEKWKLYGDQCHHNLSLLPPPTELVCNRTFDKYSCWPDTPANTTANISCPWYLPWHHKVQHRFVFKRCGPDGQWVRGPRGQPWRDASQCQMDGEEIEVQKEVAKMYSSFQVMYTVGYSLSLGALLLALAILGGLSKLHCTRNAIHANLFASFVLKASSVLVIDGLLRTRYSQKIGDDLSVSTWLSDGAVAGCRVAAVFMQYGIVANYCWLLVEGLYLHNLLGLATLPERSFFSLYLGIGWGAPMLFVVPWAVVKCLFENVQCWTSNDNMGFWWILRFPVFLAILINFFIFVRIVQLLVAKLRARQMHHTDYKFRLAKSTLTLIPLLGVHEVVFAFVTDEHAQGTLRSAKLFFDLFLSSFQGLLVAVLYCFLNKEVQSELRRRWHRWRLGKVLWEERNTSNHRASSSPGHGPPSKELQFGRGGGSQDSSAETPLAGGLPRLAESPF

Legend:
[1] = biological target: T1, glucagon (human, cloned into CHO cells) receptor (Homo sapiens, UniProt P47871); test: cAMP stimulation cellular assay (DiscoveRx LeadHunter), glucagon receptor; assay type: cell-based
T1 construct: host or cells: CHO cells

[2] = Phase 1 MAD study of ALT-801: study disposition; assay type: in vivo, human; details: for Early withdrawal due to adverse event, % of subjects: 12-week MAD
Protocol: The Safety Population includes all randomized subjects who receive at least 1 dose of study medication. Subjects is analyzed according to the treatment that they receive. […] The QT Population includes all subjects in the PK Population who have at least 1 time-matched ECG at baseline and corresponding time-matched PK-ECG postdose. The PD Population includes all randomized subjects who receive at least 1 dose of study medication and who have results from baseline and at least 1 post-baseline PD assessment.

[3] = Phase 1 MAD study of ALT-801: systolic and diastolic blood pressure; details: 12 weeks, 1.2, 1.8 and 2.4 mg
[4] = Phase 1 MAD study of ALT-801: serum lipids (total cholesterol, LDL, HDL, triglycerides); assay type: in vivo, human; details: for HDL cholesterol, change from baseline, mean / HDL cholesterol, percent change from baseline, mean / LDL cholesterol, change from baseline, mean / LDL cholesterol, percent change from baseline, mean / Total cholesterol, change from baseline, mean / Total cholesterol, percent change from baseline, mean / Triglycerides, change from baseline, mean / Triglycerides, percent change from baseline, mean: 12-week MAD
Protocol: (§1) Blood samples are collected for evaluation of ketone bodies after the subject has fasted overnight for at least 10 hours, 1 day prior to the first and second doses, and 6 days after the last dose. Blood samples for evaluation of FGF-21 and adiponectin are collected after the subject has fasted overnight for at least 10. Following a minimum 10 hour fast, blood is collected for assessment of lipids, including cholesterol (total, HDL, LDL), Apo A and B, lipoprotein(a), TG, and tripalmitin, prior to the first dose and 6 days after the last dose of study medication, as indicated in Table 4. Blood is collected for the assessment of inflammatory markers, including TNF-α, hs-CRP, leptin, MCP-1, and IL-6 prior to the first dose and 6 days after the last dose of study medication, as indicated in Table 4. Glucose homeostasis is assessed by 24-hour CGM using a Dexcom G6 CGM during the periods indicated in Part 1 and Part 2.

[5] = Population PK model / pharmacometric modelling, predicted human PK and efficacious dose
Description: The pre-clinical safety findings support a 3-fold dose escalation increment to SAD Cohort 2. Subsequent escalations will not exceed 2-fold in either part of the study. Dose titration schemes may be explored if needed to improve tolerability. Adding to the confidence around these predictions, the dose-exposure relationship in humans is predicted to be linear based on a population PK model of several preclinical species (mice, rats, mini-pigs, and monkeys). The model is updated with human data as the study is ongoing. […] Based on once-weekly (QW) dosing, the estimated accumulation with repeated dosing at steady state is not greater than 2-fold. To ensure that multiple dose exposures will remain within single dose exposures, the starting dose in Part 2 is planned to be one-half the dose for Part 1 Cohort 3. However, subsequent Part 2 cohorts may be adjusted based on safety and PK data. The decision to escalate to each successive dose level is based on assessment of safety and tolerability through Day 8 (7 days following the single dose) in Part 1 and Day 15 (7 days following the second dose) in Part 2. […] Further, the expectation is the Cmax and AUCtau of the final week of dosing will not exceed the Cmax or AUCinf of a dose in a previously completed and safety-assessed SAD cohort.

[6] = Phase 1 MAD study of ALT-801: glucose homeostasis, fasting plasma glucose and HbA1c; assay type: in vivo, human; details: for Fasting Plasma Glucose, change from baseline / Fasting Plasma Glucose, percent change from baseline: mean of weekly measurements, Weeks 1-12, compared to Baseline
Protocol: as §1

[7] = Example 7 planned Phase 1 12-week study of ALT-801 in subjects with NAFLD; assay type: in vivo, human; details: SC once weekly up to 12 doses, NASH
Description: Subjects will be stratified for the presence of absence of diabetes at baseline. […] Subjects will be stratified for the presence of absence of diabetes at baseline.
For this study, suitable subjects are those with NAFLD without significant fibrosis, defined as FibroScan® controlled attenuation parameter (CAP)≥280 dB/m and liver stiffness measurement (LSM)<8.5 kPa, and magnetic resonance imaging derived proton density fat fraction (MRI-PDFF)≥10%. […] There will be 18 subjects in each treatment arm.

[8] = Phase 1 MAD study of ALT-801: pre-diabetes and metabolic syndrome; assay type: in vivo, human
[9] = Phase 1 MAD study of ALT-801: appetite suppression / early satiety; assay type: in vivo, human; details: 12 weeks, 1.2, 1.8 and 2.4 mg
Protocol: Food intake and appetite are assessed using an ad libitum meal test and the VAS questionnaire. VAS questionnaires are standard techniques in appetite research that record feelings of hunger, satiety, fullness, and desire to eat specific tastes, such as sweet, salty, savory, and fatty [Flint 2000]. Subjects will complete a VAS questionnaire before and after an ad libitum meal on days specified in the schedule of assessments. The size of the ad libitum meal will exceed expected intake of healthy overweight and obese volunteers. During the test meal, subjects are isolated and environmental cues minimized (ie, no TV, cell phones, computers, etc.). Subjects are instructed that they have 30 minutes to consume as much or as little as they want, and they should eat until comfortably full. Pre and post meal weights are recorded to capture food intake, and caloric consumption is determined.

[10] = Week 12, 1.2 mg, Baseline 3 (50.0%)

## CC[C@H](C)[C@H](NC(=O)[C@H](Cc1ccccc1)NC(=O)[C@H](CCC(=O)O)NC(=O)[C@@H]1CCCCNC(=O)CC[C@H](NC(=O)[C@H](CC(=O)O)NC(=O)[C@H](CC(C)C)NC(=O)[C@H](Cc2ccc(O)cc2)NC(=O)[C@H](CCCCN)NC(=O)[C@H](CO)NC(=O)[C@H](Cc2ccc(O)cc2)NC(=O)[C@H](CC(=O)O)NC(=O)[C@H](CO)NC(=O)[C@@H](NC(=O)[C@H](Cc2ccccc2)NC(=O)[C@@H](NC(=O)CNC(=O)[C@H](CCC(N)=O)NC(=O)C(C)(C)NC(=O)[C@@H](N)Cc2c[nH]cn2)[C@@H](C)O)[C@@H](C)O)C(=O)N[C@@H](CCCCNC(=O)[C@H]2O[C@@H](OCCCCCCCCCCCCCCCCCC(=O)O)[C@H](O)[C@@H](O)[C@@H]2O)C(=O)N[C@@H](C)C(=O)N[C@@H](C)C(=O)N1)C(=O)N[C@@H](CCC(N)=O)C(=O)N[C@@H](Cc1c[nH]c2ccccc12)C(=O)N[C@@H](CC(C)C)C(=O)N[C@@H](CC(C)C)C(=O)N[C@@H](CCC(N)=O)C(=O)N[C@H](C(N)=O)[C@@H](C)O [ALT-801, pemvidutide]
[1]
  % activity, GCGR: 100%
[1]; CHO, read-out: intrinsic activity, GCGR
  Emax: 115%
[1]; equipotent (1:1) activity at both receptors, GCGR
  EC50: ~0.04 nM
[2]; 1.2 mg SC once weekly
  Early withdrawal due to adverse event, % of subjects: (0%)
[2]; 1.8 mg SC once weekly
  Early withdrawal due to adverse event, % of subjects: (0%)
[2]; 2.4 mg SC once weekly
  Early withdrawal due to adverse event, % of subjects: (0%)
[2]; 12 weeks
  withdrawal / study discontinuations due to adverse events: No subject withdrew; also recorded: no study discontinuations due to adverse events
[3]
  blood pressure, in words: improved blood pressure across all dose groups
[4]; 1.2 mg SC once weekly
  HDL cholesterol, change from baseline, mean: -7.1 mg/dL
  HDL cholesterol, percent change from baseline, mean: −16.7%
  LDL cholesterol, change from baseline, mean: -24.7 mg/dL
  LDL cholesterol, percent change from baseline, mean: −16.9%
  Total cholesterol, change from baseline, mean: -41.4 mg/dL
  Total cholesterol, percent change from baseline, mean: −20.0%
  Triglycerides, change from baseline, mean: -59.0 mg/dL
  Triglycerides, percent change from baseline, mean: −37.0%
[4]; 1.8 mg SC once weekly
  HDL cholesterol, change from baseline, mean: -14.2 mg/dL
  HDL cholesterol, percent change from baseline, mean: −30.25
  LDL cholesterol, change from baseline, mean: -37.4 mg/dL
  LDL cholesterol, percent change from baseline, mean: −30.35
  Total cholesterol, change from baseline, mean: -60.6 mg/dL
  Total cholesterol, percent change from baseline, mean: −28.05
  Triglycerides, change from baseline, mean: -43.3 mg/dL
  Triglycerides, percent change from baseline, mean: −37.95
[4]; 2.4 mg SC once weekly
  HDL cholesterol, change from baseline, mean: -15.9 mg/dL
  HDL cholesterol, percent change from baseline, mean: −36.0%
  LDL cholesterol, change from baseline, mean: -29.4 mg/dL
  LDL cholesterol, percent change from baseline, mean: −26.7%
  Total cholesterol, change from baseline, mean: -52.7 mg/dL
  Total cholesterol, percent change from baseline, mean: −28.0%
  Triglycerides, change from baseline, mean: -33.0 mg/dL
  Triglycerides, percent change from baseline, mean: −29.3%
[4]; 12 weeks, 1.2, 1.8 and 2.4 mg
  serum lipid levels, in words: improvements in serum lipid levels
[5]; human, plasma, subcutaneous
  predicted t1/2 in humans: ~100 h
[5]; once-weekly (QW) dosing
  estimated accumulation with repeated dosing at steady state: ≤ 2 fold
[6]; 1.2 mg SC once weekly
  Fasting Plasma Glucose, change from baseline: +3.0 mg/dL
  Fasting Plasma Glucose, percent change from baseline: +3.5%
[6]; 1.8 mg SC once weekly
  Fasting Plasma Glucose, change from baseline: -0.4 mg/dL
  Fasting Plasma Glucose, percent change from baseline: −0.5%
[6]; 2.4 mg SC once weekly
  Fasting Plasma Glucose, change from baseline: -0.8 mg/dL
  Fasting Plasma Glucose, percent change from baseline: −0.9%
[6]; Baseline, 1.2 mg group
  HOMA-IR (insulin resistance), Mean (SD): 2.5 (1.2)
  HbA1c, Mean (SD): 5.3 (0.1) %
[6]; Baseline, 1.8 mg group
  HOMA-IR (insulin resistance), Mean (SD): 2.4 (2.5)
  HbA1c, Mean (SD): 5.5 (0.2) %
[6]; Baseline, 2.4 mg group
  HOMA-IR (insulin resistance), Mean (SD): 3.1 (1.8)
  HbA1c, Mean (SD): 5.3 (0.2) %
[6]; Week 12, 1.2 mg SC once weekly
  HOMA-IR (insulin resistance), Mean (SD): 2.0 (1.4)
  HbA1c, Mean (SD): 5.4 (0.2) %
[6]; Week 12, 1.8 mg SC once weekly
  HOMA-IR (insulin resistance), Mean (SD): 2.2 (2.5)
  HbA1c, Mean (SD): 5.4 (0.3) %
[6]; Week 12, 2.4 mg SC once weekly
  HOMA-IR (insulin resistance), Mean (SD): 2.4 (1.2)
  HbA1c, Mean (SD): 5.3 (0.3) %
[7]
  expected outcome of trial: safe and tolerable
[8]; [10]
  Metabolic syndrome, %: 50.0%
  Pre-diabetes, %: 0.0%
[8]; Week 12, 1.8 mg, Baseline 4 (44.4%)
  Metabolic syndrome, %: 22.2%
[8]; Week 12, 1.8 mg, Baseline 5 (55.6%)
  Pre-diabetes, %: 33.3%
[8]; Week 12, 2.4 mg, Baseline 5 (55.6%)
  Metabolic syndrome, %: 66.7%
[8]; Week 12, 2.4 mg, Baseline 7 (77.8%)
  Pre-diabetes, %: 11.1%
[9]
  appetite, in words: decreased appetite and a dose response
